Assay results published in US7642274B2, “Inhibitor of pain threshold decrease” (Santen Pharmaceutical Co., Ltd., priority 2003, dated 2010).

Tested on: repetitive cold stress rat models
Test: Test for inhibition of pain threshold decrease by repetitive cold stress (continuous administration), Randall-Selitto method
Assay type: in vivo
Details: day 8 after applying the repetitive cold stress; subcutaneously 3 mg/kg once a day; with stress; average of 5 or 6 cases

| Compound | Rate of inhibition of pain threshold decrease (%) |
| --- | --- |
| CN(C(=O)Cc1ccc(Cl)c(Cl)c1)C1CCC2(CCCO2)CC1N1CCCC1 (relative stereo) | 40.4% |
| CN(C(=O)Cc1ccc(Cl)c(Cl)c1)[C@@H]1CCCC[C@H]1N1CCCC1.CS(=O)(=O)O (relative stereo) | 59.6% |
